From patent US11059860B2, “Biocidal peptide and preparation based thereon” (“VERTA RESEARCH-PRODUCTION COMPANY” LTD, priority 2017, dated 2021)
Only a part of the results on these compounds is given; other tests are left out.

What was measured:
thymus cells = assay: Spontaneous proliferation of thymus cells (3H-thymidin capture); assay type: cell-based, murine; settings: 72 hrs
spleen cells = assay: Spontaneous proliferation of spleen cells (3H-thymidin capture); assay type: cell-based, murine; settings: 72 hrs
[1] = system: spleen cells stimulated with LPS; assay: Proliferation of spleen cells stimulated with LPS (3H-thymidin capture); assay type: cell-based, murine
[2] = system: RAW 264.7 macrophage line cells; assay: NO production by RAW 264.7 macrophage line cells stimulated with LPS (Greiss test); assay type: cell-based
Description: Upon completion of incubation, the culture medium in all wells of the plate was replaced with 0.25 ml of fresh medium. […] Polymixin B (Calbiochem) (PMB) in the same concentrations was used as the positive control of the inhibition of the LPS effect. The prepared mixture was then added at 0.25 ml increments to the wells of the culture plate at least in two parallel experiments. A mixture of LPS and the culture medium was added to the control wells. The cells were cultivated for 24 hrs. in a CO2 incubator. NO production was measured based on the total nitrite level in the culture medium in the Greiss test by using a commercial reagent (Sigma) according to the manufacturer's specifications.

Substance: HN2—(CH2)10—CO-Ile-Leu-Pro-D-Phe-Lys-D-Phe-Pro-D-Phe-D-Phe-Pro-D-Phe-Arg-Arg-NH2
- spontaneous proliferation of thymus cells (captured 3H-thymidin) (thymus cells; peptide 0.08 μg/ml): 273 ± 75 imp/min
- spontaneous proliferation of thymus cells (captured 3H-thymidin) (thymus cells; peptide 0.4 μg/ml): 321 ± 57 imp/min
- spontaneous proliferation of thymus cells (captured 3H-thymidin) (thymus cells; peptide 2 μg/ml): 249 ± 50 imp/min
- spontaneous proliferation of thymus cells (captured 3H-thymidin) (thymus cells; peptide 10 μg/ml): 211 ± 57 imp/min
- spontaneous proliferation of spleen cells (captured 3H-thymidin) (spleen cells; peptide 0.08 μg/ml): 2439 ± 526 imp/min
- spontaneous proliferation of spleen cells (captured 3H-thymidin) (spleen cells; peptide 0.4 μg/ml): 1791 ± 219 imp/min
- spontaneous proliferation of spleen cells (captured 3H-thymidin) (spleen cells; peptide 2 μg/ml): 1225 ± 474 imp/min
- spontaneous proliferation of spleen cells (captured 3H-thymidin) (spleen cells; peptide 10 μg/ml): 1174 ± 282 imp/min
- effect on splenocyte proliferation stimulated with lipopolysaccharide (in words) ([1]; 0.4-2.0 μg/ml doses): inhibited the LPS effect
- proliferation of spleen cells stimulated with LPS (captured 3H-thymidin) ([1]; LPS 0.02 μg/ml, peptide 0.08 μg/ml): 4827 ± 1013 imp/min
- proliferation of spleen cells stimulated with LPS (captured 3H-thymidin) ([1]; LPS 0.02 μg/ml, peptide 0.4 μg/ml): 4008 ± 524 imp/min
- proliferation of spleen cells stimulated with LPS (captured 3H-thymidin) ([1]; LPS 0.02 μg/ml, peptide 2 μg/ml): 3970 ± 936 imp/min
- proliferation of spleen cells stimulated with LPS (captured 3H-thymidin) ([1]; LPS 0.2 μg/ml, peptide 0.08 μg/ml): 17121 ± 2647 imp/min
- proliferation of spleen cells stimulated with LPS (captured 3H-thymidin) ([1]; LPS 0.2 μg/ml, peptide 0.4 μg/ml): 13289 ± 997 imp/min
- proliferation of spleen cells stimulated with LPS (captured 3H-thymidin) ([1]; LPS 0.2 μg/ml, peptide 2 μg/ml): 10389 ± 613 imp/min
- effect on NO production stimulated by LPS (in words) ([2]; 10-0.4 μg/ml doses): inhibited the NO production
- NO production inhibition ([2]; stimulated with 0.04 ml of LPS, peptide 0.4 μg/ml): 16%
- NO production inhibition ([2]; stimulated with 0.04 ml of LPS, peptide 2 μg/ml): 52%
- NO production inhibition ([2]; stimulated with 0.04 ml of LPS, peptide 10 μg/ml): 94%
- NO production inhibition ([2]; stimulated with 0.2 ml of LPS, peptide 0.4 μg/ml): 2%
- NO production inhibition ([2]; stimulated with 0.2 ml of LPS, peptide 2 μg/ml): 23%
- NO production inhibition ([2]; stimulated with 0.2 ml of LPS, peptide 10 μg/ml): 84%
